Results from patent US8357695B2, “Hydrates of 2-chloro-5-[3,6-dihydro-3-methyl-2,6-dioxo-4-(trifluoromethyl)-1-(2H)-pyrimidinyl]-4-fluoro-N-[[methyl(1-methylethyl)amino]sulfonyl]benzamide” (BASF SE, priority 2006, dated 2013).
Entries after “also recorded” stand apart in the source; their conditions may differ.

Tested on: test plants
Assay: greenhouse experiments, overall comparison with form I
Assay type: in vivo
Settings: greenhouse tests, overall conclusion in words
Source text: The test period extended over 2 to 4 weeks.
The suspension concentrates had the following composition: […]

## CC(C)N(C)S(=O)(=O)NC(=O)c1cc(-n2c(=O)cc(C(F)(F)F)n(C)c2=O)c(F)cc1Cl (single isomer, unassigned) [Form III, 2-chloro-5-[3,6-dihydro-3-methyl-2,6-dioxo-4-(trifluoromethyl)-1-(2H)-pyrimidinyl]-4-fluoro-N-[[methyl(1-methylethyl)amino]sulfonyl]benzamide]
  herbicidal activity in comparison with form I: superior to the former in terms of activity; also recorded: markedly improved herbicidal activity
